Data taken from US20110319484A1, “NEUROPROTECTIVE COMPOUNDS” (Parque Tecnologico de Ciencias de la Salud, priority 2009, published 2011).

Molecular target: T1, HMG-CoA reductase enzyme (Homo sapiens, UniProt P04035)
T1 construct: the oxidation of the NADPH by the catalytic subunit of the HMG-CoA reductase
T1 sequence (P04035 340-888 limits assumed): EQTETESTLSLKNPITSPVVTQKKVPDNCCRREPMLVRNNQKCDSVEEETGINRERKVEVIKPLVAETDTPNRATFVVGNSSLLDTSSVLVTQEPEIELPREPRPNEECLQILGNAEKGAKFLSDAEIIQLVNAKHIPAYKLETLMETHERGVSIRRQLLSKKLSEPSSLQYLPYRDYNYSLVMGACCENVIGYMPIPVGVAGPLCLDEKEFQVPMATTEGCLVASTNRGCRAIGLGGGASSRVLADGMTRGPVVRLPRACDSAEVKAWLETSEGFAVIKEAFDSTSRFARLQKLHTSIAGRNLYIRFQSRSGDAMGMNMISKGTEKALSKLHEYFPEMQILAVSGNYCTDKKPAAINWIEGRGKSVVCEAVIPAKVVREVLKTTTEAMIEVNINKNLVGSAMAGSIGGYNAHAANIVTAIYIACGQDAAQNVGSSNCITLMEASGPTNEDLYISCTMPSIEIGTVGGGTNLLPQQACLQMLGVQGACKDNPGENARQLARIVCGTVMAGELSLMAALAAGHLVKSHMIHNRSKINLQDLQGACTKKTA
Experiment: HMG-CoA reductase inhibition, spectrophotometric NADPH oxidation at 340 nm
Format: biochemical
Details: four independent assays; Trimmed Spearman-Karber method
Text: To that end, the degree of inhibition of the HMG-CoA reductase enzyme by the different (1S,3R,7S,8S,8aR)-1,2,3,7,8,8a-hexahydro-3,7-dimethyl-8-[2-[(2R,4R)-tetrahydro-4-hydroxy-6-oxo-2H-pyran-2-yl]ethyl-1-naphthalenyl propanoate derivatives, optionally mono- or di-methylated at the carbon in the alpha position of propanoic acid (NST0003, NST0004 and NST0005) was studied.
During the reaction, the HMG-CoA reductase uses NADPH as a reducing agent and 3-hydroxy-3-methylglutaryl coenzyme A (HMG-CoA) as a substrate. Mevalonic acid, which serves as a substrate for the following reaction in order to continue with the cholesterol synthesis, is obtained as a reaction product. […]
This in vitro assay is based on the spectrophotometric measurement of the decrease of absorbance at 340 nm, representing the oxidation of the NADPH by the catalytic subunit of the HMG-CoA reductase in the presence of the HMG-CoA reductase substrate. […]
Four independent assays were carried out. […] After brief agitation, the reading of the plate was taken in a spectrophotometer at the conditions of 340 nm, 37° C., detecting the decrease of absorbance at 340 nm over time. The percentage of HMG-CoA reductase enzymatic activity with respect to the control was calculated. The IC50 was calculated with the data obtained by means of the Trimmed Spearman-Karber method (Version 1.5).

- IC50: 161 nM
Compound: CC(C)c1c(C(=O)Nc2ccccc2)c(-c2ccccc2)c(-c2ccc(F)cc2)n1CC[C@@H](O)C[C@@H](O)CC(=O)O [atorvastatin, reference compound]
